The structures appear in SMILES notation. pIC50: −log10 of the molar value.

Protein sequences, listed by entry. Tags and fused reporters are not part of them.
UniProt P23977, whole entry: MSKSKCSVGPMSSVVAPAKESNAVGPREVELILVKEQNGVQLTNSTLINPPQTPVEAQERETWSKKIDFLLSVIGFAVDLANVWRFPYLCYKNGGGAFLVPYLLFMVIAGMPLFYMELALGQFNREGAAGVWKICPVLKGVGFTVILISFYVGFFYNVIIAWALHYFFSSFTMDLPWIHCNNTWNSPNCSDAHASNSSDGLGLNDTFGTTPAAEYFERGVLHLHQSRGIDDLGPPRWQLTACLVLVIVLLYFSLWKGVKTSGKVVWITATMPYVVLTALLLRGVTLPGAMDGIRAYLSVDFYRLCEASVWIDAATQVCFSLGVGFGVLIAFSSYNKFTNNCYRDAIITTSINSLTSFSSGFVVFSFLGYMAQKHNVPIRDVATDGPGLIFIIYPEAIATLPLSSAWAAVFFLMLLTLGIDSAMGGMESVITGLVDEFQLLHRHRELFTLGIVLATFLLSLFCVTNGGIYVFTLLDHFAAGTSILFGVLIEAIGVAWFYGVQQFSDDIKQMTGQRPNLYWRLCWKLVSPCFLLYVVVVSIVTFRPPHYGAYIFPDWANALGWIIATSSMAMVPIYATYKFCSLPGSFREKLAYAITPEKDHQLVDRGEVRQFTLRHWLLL

This experiment addresses Sodium-dependent dopamine transporter (Rattus norvegicus, UniProt P23977). Nature of the experiment: Compound was tested for inhibitory activity to displace [3H]WIN-35428 at dopamine transporter in Rat Striatal Membranes.

`COC(=O)[C@H]1[C@@H](OC(=O)c2ccc(I)cc2)C[C@H]2CC[C@H]1N2C` showed a pIC50 of 5.60.

The values above are taken from ChEMBL document CHEMBL1130389, “Synthesis and ligand binding studies of 4'-iodobenzoyl esters of tropanes and piperidines at the dopamine transporter” (J Med Chem, 1997).
